{
  "source": "patent US20070238669A1",
  "about": "“HUMAN GLUCAGON-LIKE-PEPTIDE-1 MODULATORS AND THEIR USE IN THE TREATMENT OF DIABETES RELATED CONDITIONS” (Bristol-Myers Squibb Company, priority 2006, published 2007)",
  "origin": "cited, not measured here",
  "data": [
    {"substance": "GLP-1 (7-37)", "values": [
      {"measurement": "serum half-life", "result": "less than five"}
    ]}
  ]
}
